## Binding of CDR-mutated scFvs to a peptide of the spike HR2 region

Reference: Li et al. 2023, doi:10.1038/s41467-023-39022-2. File: FLAb, binding data.

Target peptide (SARS-CoV-2 spike, HR2 region): PDVDLGDISGINAS

The variants keep the heavy chain, the linker and the frameworks of Ab-14 (scFv order VH, three GGGGS repeats, VL).
VH: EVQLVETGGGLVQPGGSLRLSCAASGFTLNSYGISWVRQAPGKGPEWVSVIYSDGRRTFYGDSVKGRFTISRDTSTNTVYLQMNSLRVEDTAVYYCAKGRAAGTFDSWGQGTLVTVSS
VL: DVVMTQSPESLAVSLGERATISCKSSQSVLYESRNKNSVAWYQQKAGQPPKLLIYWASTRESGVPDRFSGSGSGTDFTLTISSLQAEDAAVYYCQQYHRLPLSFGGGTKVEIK

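The starting antibody came from a phage panning campaign against this peptide. The variants were designed computationally from a first round of random CDR variants and then made and measured. Group labels follow the data file (Ctrl: baseline library sampled from a position-specific scoring matrix, with some repeated check sequences; En: ensemble of fine-tuned language models; GP: Gaussian process model; HC: hill climbing; Gen: genetic algorithm; Gibbs: Gibbs sampling; a sequence that several methods proposed may carry one label only). In AlphaSeq, yeast of one mating type display the scFv and yeast of the other type display the target. Binding brings cells together so that they mate, and sequencing counts the barcode pairs among the diploids. Read counts were normalised to the haploid input and turned into Kd by a linear fit to BCL2-family pairs of known affinity, for each replicate. Mating was done six times.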

Variants are written as CDR1, CDR2 and CDR3 of the light chain (limits as in the source). Parent: KSSQSVLYESRNKNSVA, WASTRES, QQYHRLPLS.
Variants here have more than six changes.
Each Kd is an estimate from the mating assay, the geometric mean of the replicates in which the pair was seen; lower is stronger.
A pair that was not seen in any replicate is written "nd"; this usually means weak binding, but a binder can also be missed.
The authors averaged sequences with at least three values out of six and counted those with two or fewer as poor binders.
A sequence measured in both rounds can read differently, since the two assays cover different ranges.
Nonspecific signal, from three strains lacking the peptide, appeared in 4% of pairings of all light chain designs, centred on 430 nM (5% of these signals below 38 nM); values are not corrected for it.

CDR-L1	CDR-L2	CDR-L3	group	apparent Kd	replicates with signal
MISQLMNMGQFAINSVA	QASIRNE	QQYDRLPLA	En_Gen	7.1 nM	6 of 6
KLSQSVRMESFNTNSVA	ENSTREA	QDYHRLPLS	En_HC	160 nM	3 of 6
NLSIQNQHQNMSANAVA	QTEIRCE	QQYAQLPLA	En_Gibbs	65 nM	6 of 6
KFMGSMLYESRNENSVA	NASQRES	QQYHRLPLS	GP_Gibbs	3.4 nM	6 of 6
KMSQPVLYESKHKNSVA	RASTRES	FQYQRLPLS	Ctrl	nd	0 of 6
KISQMYRYEQQNSSSIA	EANTREQ	QSYHRLPLS	En_HC	13 nM	6 of 6
TISQSVNMTSRGKNSVA	QAEMREE	QQYDRLPLS	En_HC	17 nM	6 of 6
QIDSFYQHGTDAKKAMA	DVSVRTQ	QQYSRLPLS	En_Gibbs	2.3 nM	6 of 6
KISMVVENELKNRNSVA	ELVTRMA	QQYNRLPLS	En_Gen	8.7 nM	6 of 6
KIGGTLNTLMHQKNNVA	DLVEREN	QQYHRLPLS	En_Gen	1.2 nM	6 of 6
TLGQSTLMESRNKNNVA	QMSTREK	QQYDRLPLS	En_HC	1.7 nM	6 of 6
QLSSITGHMQMIKNNVA	EMETREN	QQYDRLPLS	En_Gen	8.7 nM	6 of 6
RFDQTEQEGIQDKNSVA	QGSQSGT	QHYSRLPLS	En_Gibbs	120 nM	6 of 6
KLSVSTNYLSVNKNSVA	EMSTRES	QQYDRLPLS	En_HC	5.8 nM	6 of 6
SISQLVAYGSRNKNSVA	QMSTREN	QQYDRLPLS	En_HC	4.2 nM	5 of 6
TIGGTLMWGVMNRSNVA	EVSQRLN	QQYDRLPLM	En_Gen	12 nM	6 of 6
HISQSVGMTQRNKNSVA	ENSTRED	QQYDRLPLS	En_HC	89 nM	6 of 6
KLMQSPWYESRWKNSVA	NASQREE	QQYHRLPLS	GP_Gibbs	2.1 nM	6 of 6
MIHEVMGLVSHKQSSIA	DNSTRES	QQYDRLPLS	En_Gen	1.7 µM	1 of 6
TISDSAQQESHNKNSVA	DLSVRGS	QQYHRLPLS	En_HC	1.6 nM	6 of 6
HMSAVTMLGSRNRNSVA	QMTTREN	QQYDRLPLA	En_Gen	nd	0 of 6
KVSEFMRGLMMRTDSIA	DNETRQS	QQYDRLPLS	En_Gen	32 nM	6 of 6
HITMGMYVAGRHHSSIA	QAEERAK	QQYDRLPLS	En_Gen	16 nM	6 of 6
TIGQVMNWESRNKNSVA	QTSTREE	QDYDRLPLS	En_HC	52 nM	1 of 6
KLSQSNKYESRMKNSVA	NASQRMC	QQYHRLPLS	GP_Gibbs	730 pM	6 of 6
GIHSQMFGTIAVKKNVA	NANTRLS	QQYSHLPLS	En_Gibbs	8.0 nM	6 of 6
KIGMTLNTLLHQKNNVA	DLVEREN	QQYYRLPLS	En_Gen	21 nM	6 of 6
HLSDTVMQGSLYRNSVA	QESTRAD	QQYHRLPLS	En_HC	910 pM	6 of 6
NMFDKDYLDDNNENNIA	ERTARGL	QQYSRLPLT	En_Gibbs	3.4 nM	6 of 6
KIGATLNQLYEKANNVA	DLVEREN	QQYHRLPLS	En_Gen	1.1 nM	6 of 6
VLGQNCSEEEMYCASIA	DAQHREA	QQYYRLPFV	En_Gibbs	51 nM	6 of 6
KLSMVTGHLSMAKNNVA	EMETREK	QQYNRLPLA	En_Gen	5.5 nM	6 of 6
MISLCQNGYYQQNNSIA	DRNERAM	QQYGRLPLV	En_Gibbs	500 nM	4 of 6
KLLQAVVGETYNKNNVA	HNSTRED	QEYARLPLS	En_HC	550 nM	2 of 6
MISQSFLIGMKAKNSVA	QTSTRVE	QQYDRLPLI	En_HC	3.0 nM	6 of 6
MLDQMDGQMGGNTNNIA	DVNENRI	QQYHRLPLS	En_Gibbs	4.3 nM	6 of 6
KIGQQVTYESTNKSAIA	QMTTREE	QQYHRLPLS	En_HC	4.7 nM	6 of 6
KLSLSLGESKQSERNIA	NMRVSVA	QQYDTLPLT	En_Gibbs	29 nM	6 of 6
TISQMSTMFSQSINNVA	EVSTREE	QQYDRLPLA	En_Gen	21 nM	6 of 6
KFSQMVLTGMYVSNSVA	QMSTRVN	QQYHRLPLM	En_HC	8.5 nM	6 of 6
NISESMYFQSRMKNNIA	EMSTRER	QHYHRLPLS	En_HC	3.9 nM	6 of 6
MAYGGDMLESVTRNSVA	NAETRAD	QDYHRLPLS	En_HC	nd	0 of 6
HITYGMLVSGRHTSNIA	QAETRAK	QQYDRLPLI	En_Gen	11 nM	2 of 6
NLSISMLHESINKHNVA	EVRTREK	QQYDRLPLS	En_HC	5.6 nM	6 of 6
MISQVLNTLTKEGSNVA	DLAERER	QQYFRLPLS	En_Gen	43 nM	6 of 6
TISQMSTLFSQSINNVA	EVSTRLN	QQYDRLPLV	En_Gen	3.8 nM	6 of 6

Repeated from above, the 5 best binders with a signal in all replicates:

| CDR-L1 | CDR-L2 | CDR-L3 | group | apparent Kd | replicates with signal |
|---|---|---|---|---|---|
| KLSQSNKYESRMKNSVA | NASQRMC | QQYHRLPLS | GP_Gibbs | 730 pM | 6 of 6 |
| HLSDTVMQGSLYRNSVA | QESTRAD | QQYHRLPLS | En_HC | 910 pM | 6 of 6 |
| KIGATLNQLYEKANNVA | DLVEREN | QQYHRLPLS | En_Gen | 1.1 nM | 6 of 6 |
| KIGGTLNTLMHQKNNVA | DLVEREN | QQYHRLPLS | En_Gen | 1.2 nM | 6 of 6 |
| TISDSAQQESHNKNSVA | DLSVRGS | QQYHRLPLS | En_HC | 1.6 nM | 6 of 6 |